We go through 1 molecule from ChEMBL document CHEMBL1146036, “Structural determinants of opioid activity in derivatives of 14-aminomorphinones: effect of substitution in the aromatic ring of cinnamoylaminomorphinones and codeinones” (J Med Chem, 2006).

The chains behind the UniProt entries cited, without tags or fusion partners.
UniProt P35372, whole entry: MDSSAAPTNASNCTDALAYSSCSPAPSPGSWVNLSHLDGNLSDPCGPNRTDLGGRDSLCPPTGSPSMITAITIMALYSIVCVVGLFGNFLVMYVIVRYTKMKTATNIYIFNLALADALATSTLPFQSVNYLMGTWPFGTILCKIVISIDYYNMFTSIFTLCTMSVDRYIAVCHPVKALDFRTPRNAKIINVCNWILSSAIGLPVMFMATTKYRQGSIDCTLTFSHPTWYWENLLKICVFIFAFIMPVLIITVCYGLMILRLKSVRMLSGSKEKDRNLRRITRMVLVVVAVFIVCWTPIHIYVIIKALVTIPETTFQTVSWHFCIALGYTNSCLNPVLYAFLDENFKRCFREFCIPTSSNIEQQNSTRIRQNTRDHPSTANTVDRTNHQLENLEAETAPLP

The target in this assay is Mu-type opioid receptor (Homo sapiens, UniProt P35372). Format: cell-based, CHO.

In general, Ki refers to the dissociation constant of the complex between target and ligand, obtained from inhibition or displacement. A high value points to weaker binding. The molecule `COc1ccc2c3c1O[C@H]1C(=O)CC[C@@]4(NC(=O)/C=C/c5ccc(Cl)cc5)[C@@H](C2)N(CC2CC2)CC[C@]314` registered a Ki of 4.78 nM.
